The list shows a part of the results, in another mix than the full data. Calls of active or inactive are those of the source.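 The calls were made as follows: active = mean growth inhibition over the two runs of 50% or more; inactive = mean growth inhibition under 50%.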

This test in a line: A549 NSCLC cell proliferation inhibitors – ATP luminescence, human non-small cell lung line, primary screen (AID 371).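 Also: compound exposure lasted 72 h before the ATP read; 0% = untreated cell signal and 100% = no luminescence left.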 To be noted: at 10 µM, stronger effect = higher value.
Consider `Cc1cccc(OCC(=O)OC2CN3CCC2CC3)c1` (configuration not stated), for which the growth inhibition was inactive: 4.48%.

In the case of `Cc1ccc(OCC(=O)OC2CN3CCC2CC3)cc1` (configuration not stated), the growth inhibition was inactive: 3.47%.

(Values after PubChem BioAssay AID371 (SRMLSC, 2006).)
